These results are taken from paper PMC12015242, “A universal cannabinoid CB1 and CB2 receptor TR-FRET kinetic ligand-binding assay” (Frontiers in Pharmacology, 2025).

Amino acid sequences for entries named in this document (tags omitted).
UniProt P34972, whole entry: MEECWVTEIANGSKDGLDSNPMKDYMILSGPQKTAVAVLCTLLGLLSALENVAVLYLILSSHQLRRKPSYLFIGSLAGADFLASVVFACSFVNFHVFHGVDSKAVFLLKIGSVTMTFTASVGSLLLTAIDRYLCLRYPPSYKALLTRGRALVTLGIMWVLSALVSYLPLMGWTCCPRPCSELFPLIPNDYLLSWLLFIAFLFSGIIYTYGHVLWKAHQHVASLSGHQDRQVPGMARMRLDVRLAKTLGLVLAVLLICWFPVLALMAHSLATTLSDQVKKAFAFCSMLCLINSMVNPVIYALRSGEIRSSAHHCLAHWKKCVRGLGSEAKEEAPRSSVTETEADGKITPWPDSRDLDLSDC

Molecules are shown by their SMILES.

Experiment [1] addresses T1, human CB2R (SNAP-CB2) (Homo sapiens, UniProt P34972). Description: biochemical. The class given is binding. Details: truncated CB1R (CB1R91-472) and full-length CB2R (CB2R1–360); 5HT3A signal peptide (N, cleaved yes); expressed in transfected cells; membranes. The note with it: 37°C, D77 900 nM, 15-min incubation.
The target in experiment [2] is T1, human CB2R (SNAP-CB2). Description: biochemical.

Turning to `CCCCC/C=C\C/C=C\C/C=C\C/C=C\CCCC(=O)NCCO` [Anandamide, anandamide], the affinity in experiment [1] corresponds to a Ki of 776 nM. In addition, the Kd in experiment [2] (pK d (kinetic), 37°C) was 631 nM; in experiment [2] (pKd (kinetic), 25°C), 871 nM.

Broadly, the Ki is a measure of affinity in units of concentration, obtained from inhibition or displacement. Low readings indicate a stronger hold on the target, high ones a looser hold on the target. A word on the Kd: it is the constant that tells how readily two partners part at equilibrium.
